Data taken from patent US20240277861A1, “ANTI-HEPATITIS B VIRUS AGENT TARGETING HOST FACTOR LIPG” (PUROTECH BIO, INC., priority 2021, published 2024).

Target: T1, biotinylated full-length LIPG (Homo sapiens, UniProt Q9Y5X9)
T1 construct: A pull-down assay was performed on the full-length form of LIPG (500 amino acids); made in house
T1 sequence (Q9Y5X9 21-500): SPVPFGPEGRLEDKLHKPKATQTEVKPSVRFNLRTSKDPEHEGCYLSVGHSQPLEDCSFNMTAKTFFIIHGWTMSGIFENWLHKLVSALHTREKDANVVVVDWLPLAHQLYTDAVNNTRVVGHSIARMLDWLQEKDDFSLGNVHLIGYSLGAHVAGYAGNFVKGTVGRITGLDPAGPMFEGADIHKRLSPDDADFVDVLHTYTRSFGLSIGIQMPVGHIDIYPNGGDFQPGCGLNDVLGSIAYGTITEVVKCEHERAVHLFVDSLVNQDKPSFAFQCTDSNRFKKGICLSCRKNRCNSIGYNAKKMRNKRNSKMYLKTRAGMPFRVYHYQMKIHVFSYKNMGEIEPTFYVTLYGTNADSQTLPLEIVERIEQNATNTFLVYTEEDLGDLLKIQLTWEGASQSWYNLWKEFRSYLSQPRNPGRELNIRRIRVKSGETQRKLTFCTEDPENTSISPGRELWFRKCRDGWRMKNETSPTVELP
Assay: Pull-down assay of N4BP1 against full-length LIPG
Format: binding
Conditions: culture supernatant containing expressed N4BP1
Procedure: Resin (Streptavidin MagneSphere Paramagnetic Particles, Promega) was washed using the MagneSphere Technology Magnetic Separation Stand (twelve-position). The resin in a volume of 40 μl was added to each 1.5 ml tube, and after removal of the solution, washed three times with 1 ml of PBS. The resin was transferred to new tubes and mixed with the biotinylated full-length LIPG or with an equal volume of PBS as a no bait control, and the resulting mixtures were agitated at 4° C. for 1 hour by rotation on a mini-disk rotor (BIO CRAFT) to allow binding. After removal of the solution, the resin was washed three times with 1 ml of TBST (0.05% Tween 20). The resin was transferred to new tubes, blocked with 1 ml of ELISA BSA buffer (TBS. 0.05%. Tween 20, 10% BSA, Nacalai Tesque, Inc.) at 4° C. for 1 hour, and then washed three times with 1 ml of ELISA BSA buffer. The resin was transferred to new tubes, and 1000 μl of the culture supernatant containing expressed N4BP1 was mixed with 40 μl of the resin treated with the biotinylated full-length LIPG or without the bait, and the resulting mixtures were agitated at 4° C. for 1 hour and 30 minutes by rotation on a mini-disk rotor (BIO CRAFT) to allow binding. After removal of the solution, the resin was washed three times with 500 μl of TBST (Tween 20, 0.10%), and the recovered resin was used for Western blotting. […]

## N4BP1: full-length N4BP1 (NEDD4-binding protein 1), SEQ ID NO: 82 [Peptide N4BP1]
  binding to LIPG in pull-down assay: binds to LIPG
